One assay has as its target Alpha carbonic anhydrase (Stylophora pistillata, UniProt B5SU02). Nature of the assay: Inhibition of Stylophora pistillata carbonic anhydrase by stopped-flow CO2 hydration assay.
Another assay addresses Carbonic anhydrase (Stylophora pistillata, UniProt C0IX24). Briefly: Inhibition of Stylophora pistillata carbonic anhydrase 2 by stopped-flow CO2 hydration assay.

By UniProt entry, the sequences of proteins in these tests, tags left out. Where a name states a change or a piece, a line headed by the entry shows the natural chain unless it says otherwise.
UniProt B5SU02: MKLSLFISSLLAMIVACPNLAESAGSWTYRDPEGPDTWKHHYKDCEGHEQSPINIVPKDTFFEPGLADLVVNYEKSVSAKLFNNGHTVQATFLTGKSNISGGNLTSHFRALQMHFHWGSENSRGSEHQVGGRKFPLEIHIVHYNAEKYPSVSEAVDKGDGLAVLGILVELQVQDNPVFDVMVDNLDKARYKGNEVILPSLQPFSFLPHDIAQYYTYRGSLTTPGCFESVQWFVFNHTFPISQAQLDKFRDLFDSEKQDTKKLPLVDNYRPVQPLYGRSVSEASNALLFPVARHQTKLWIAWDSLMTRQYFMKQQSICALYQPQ
UniProt C0IX24: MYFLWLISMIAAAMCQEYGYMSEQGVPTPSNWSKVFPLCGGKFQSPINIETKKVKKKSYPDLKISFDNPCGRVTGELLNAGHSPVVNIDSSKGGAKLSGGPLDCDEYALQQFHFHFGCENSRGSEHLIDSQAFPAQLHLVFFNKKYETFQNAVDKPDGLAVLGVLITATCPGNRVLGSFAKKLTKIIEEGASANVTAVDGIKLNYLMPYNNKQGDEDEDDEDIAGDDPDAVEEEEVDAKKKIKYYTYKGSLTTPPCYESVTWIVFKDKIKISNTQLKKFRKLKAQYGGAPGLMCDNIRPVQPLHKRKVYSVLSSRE

Structures are written as SMILES. pKi: −log10 of the molar value.

The values that follow come from ChEMBL document CHEMBL1641500, “Carbonic anhydrase inhibitors. Inhibition studies with anions and sulfonamides of a new cytosolic enzyme from the scleractinian coral Stylophora pistillata” (Bioorg Med Chem Lett, 2011).

As a reminder, the pKi is the negative decadic logarithm of the Ki, by convention in mol/L. In the case of `O=[As](O)(O)c1ccccc1`, the pKi was 9.11 on Alpha carbonic anhydrase and 10.17 on Carbonic anhydrase.
